PMC7923228, “Phosphoinositide 3-Kinase (PI3K) Reactive Oxygen Species (ROS)-Activated Prodrug in Combination with Anthracycline Impairs PI3K Signaling, Increases DNA Damage Response and Reduces Breast Cancer Cell Growth” (International Journal of Molecular Sciences, 2021)

Experiments:
[1] = mouse, in vivo, ip, 20 mg/kg
[2] = 40% propylene glycol with 60% injectable saline; dose 20 mg/kg

ROS-induced drug release 3-(4-morpholinopyrido[3′,2′:4,5]furo[3,2-d]pyrimidin-2-yl)phenol [RIDR-PI-103]
K01 [1]: 2.5 h⁻¹
V/F [1]: 89 L/kg
apparent volume of distribution [1]: 89 L
λz [1]: 0.073 h⁻¹
solubility in formulation [2]: soluble in solution and not a suspension
